Results as given in patent publication EP4692081A1, “PREPARATION METHOD FOR NAPHTHOISOXAZOLE COMPOUND” (priority 2023, dated 2024).
Where a name gives a salt, the structure may show the parent alone.

Assay: Pharmacokinetic evaluation in beagle dogs
Type: in vivo, Male beagle dogs
Details: Intragastric Administration (5 mg/kg), fed
Excerpt: Male beagle dogs were selected as the experimental animals in this study. The LC/MS/MS method was employed to quantitatively determine the plasma drug concentrations at different time points after intravenous injection or intragastric administration of the test compound, aiming to evaluate the pharmacokinetic characteristics of the compound of the present disclosure in beagle dogs.
Beagle dogs (male, 7 to 10 kg, Beijing Mars Biotechnology Co., Ltd.).
A clear solution of the test compound was slowly injected intravenously into beagle dogs (fed) via the peripheral vein (vehicle: 5% DMSO/10% Solutol/85% H2O), or administered intragastrically to beagle dogs (fed). For intravenous administration, 0.5 mL of blood was collected from the peripheral vein at 0.083, 0.25, 0.5, 1, 2, 4, 6, 8, and 24 h after administration, placed in EDTA-2K anticoagulant tubes, and centrifuged at 3200 g for 10 minutes at 2 to 8°C to separate the supernatant. […] Plasma drug concentrations were determined by the LC-MS/MS method, and relevant pharmacokinetic parameters were calculated using Phoenix WinNonlin 6.3 pharmacokinetic software with non-compartmental model linear-log trapezoidal method.

Structure (SMILES): O=C1CCC(c2noc3ccc4c(NC(=O)CN5CCN(C[C@H]6CC[C@H](n7cc(NC(=O)c8coc(-c9ccnc(NCC%10CC%10)c9)n8)c(C(F)F)n7)CC6)CC5)cccc4c23)C(=O)N1 (stereo partly shown) [Hydrochloride of Compound of Formula (I)]
- Bioavailability F: 72.6%
